# Measured affinities in a library of Ab-91 heavy chain variants

The measurements come from Engelhart et al. 2022 (doi:10.1038/s41597-022-01779-4) through the FLAb antibody collection.

Target peptide (SARS-CoV-2 spike, HR2 region): PDVDLGDISGINAS

Each scFv is VL, three GGGGS repeats, VH, as in the parent Ab-91, and differs from it in the CDRs of the heavy chain only.
VL: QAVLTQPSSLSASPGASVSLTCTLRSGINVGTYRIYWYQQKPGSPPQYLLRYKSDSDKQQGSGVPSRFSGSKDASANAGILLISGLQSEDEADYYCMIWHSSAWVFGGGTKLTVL
VH: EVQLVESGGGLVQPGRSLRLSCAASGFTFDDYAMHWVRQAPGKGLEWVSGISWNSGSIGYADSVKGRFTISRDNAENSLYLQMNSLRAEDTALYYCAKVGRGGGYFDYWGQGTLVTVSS

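The parent was found by panning a naive human phage display library on the peptide. Variants in AAYL51 differ from the parent at up to three CDR positions; double and triple changes were sampled at random. The scFvs were displayed on barcoded MATa yeast, the peptide on MATalpha yeast. The frequency of each diploid, read from paired DNA barcodes, reflects how well the two displayed proteins bind. Each replicate has its own calibration line, from reference interactions of the BCL2 family. Each pool was mated in three replicate cultures.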

Positions count from residue 1 of the parent VH; N54Q puts Q in place of N. Every variant below is changed at G103 of the VH (sequential numbering). Values are apparent Kd, the geometric mean of the replicates that gave a signal; lower means stronger binding. "no signal" means that the variant was in the library but no mating with the target was seen in any replicate; the authors take this as a sign of poor binding, and no number exists. Nonspecific signal, from three strains lacking the peptide, appeared in 21% of pairings of library AAYL51, centred on 34 µM (5% of these signals below 1.8 µM); values are not corrected for it. Also given: how often the same scFv was detected with the empty control strains. Parent in this assay: reference entry 72 nM, copy in this library 7.5 nM.

changes,Kd,detected,control signals
N54Q+G103V,no signal,0 of 3,1 of 9
S52A+W53D+G103P,1.2 mM,1 of 3,5 of 9
K65E+G103I,66 µM,2 of 3,1 of 9
G59N+G103N+D107A,33 µM,3 of 3,2 of 9
Y60V+G103E+F106V,no signal,0 of 3,1 of 9
A61M+V99I+G103V,29 nM,3 of 3,1 of 9
A33Y+G103S+F106N,no signal,0 of 3,3 of 9
K65F+V99W+G103E,4.0 µM,1 of 3,0 of 9
F29H+N54K+G103V,130 µM,2 of 3,3 of 9
V64W+G103W+Y105K,5.8 µM,1 of 3,1 of 9
S55R+G100N+G103E,no signal,0 of 3,1 of 9
A33R+G56T+G103Q,no signal,0 of 3,2 of 9
A33M+V99P+G103P,49 µM,1 of 3,2 of 9
G50I+K65H+G103E,no signal,0 of 3,1 of 9
F27W+G102E+G103E,no signal,0 of 3,0 of 9
F29W+G102I+G103K,710 µM,2 of 3,4 of 9
V64I+R101V+G103M,56 µM,1 of 3,1 of 9
N54P+G103S+Y105S,35 µM,1 of 3,1 of 9
D30I+V99E+G103L,9.7 µM,1 of 3,1 of 9
G103H,no signal,0 of 3,3 of 9
W53T+N54H+G103W,670 µM,1 of 3,1 of 9
D62H+V99Y+G103C,22 µM,2 of 3,3 of 9
N54D+D62S+G103S,5.4 µM,1 of 3,0 of 9
F29R+G103S,no signal,0 of 3,1 of 9
S63Y+G100R+G103H,45 µM,2 of 3,3 of 9
Y32K+V99D+G103W,no signal,0 of 3,1 of 9
I51G+Y60N+G103D,no signal,0 of 3,1 of 9
S55I+Y60P+G103Y,no signal,0 of 3,0 of 9
S55G+S63W+G103R,no signal,0 of 3,1 of 9
S57D+Y60F+G103H,8.9 µM,2 of 3,3 of 9
D62S+G103Q+F106R,no signal,0 of 3,4 of 9
M34Y+G103Y+D107V,no signal,0 of 3,0 of 9
I51C+G103Q+F106S,no signal,0 of 3,0 of 9
G103C+Y108I,56 nM,3 of 3,4 of 9
D30A+V99T+G103P,no signal,0 of 3,0 of 9
K65I+V99M+G103E,no signal,0 of 3,1 of 9
G50V+V99C+G103I,25 µM,1 of 3,1 of 9
H35A+G103E+F106P,no signal,0 of 3,0 of 9
Y32R+H35Q+G103Q,no signal,0 of 3,0 of 9
Y32T+V64D+G103W,150 µM,1 of 3,4 of 9
F29M+G100E+G103D,160 nM,3 of 3,5 of 9
V64M+G103T,no signal,0 of 3,0 of 9
Y32N+G103K,170 µM,3 of 3,4 of 9
G103R+G104C+D107H,2.1 µM,3 of 3,3 of 9
I51Q+G100L+G103F,no signal,0 of 3,0 of 9
A61H+G103A+G104Q,no signal,0 of 3,2 of 9
V64N+V99T+G103W,17 µM,2 of 3,2 of 9
D30F+V99I+G103E,720 nM,3 of 3,2 of 9
G26I+G59D+G103Q,34 µM,1 of 3,0 of 9
Y32W+Y60M+G103F,no signal,0 of 3,4 of 9
D31K+G103R+Y108D,24 µM,1 of 3,0 of 9
G102V+G103A,19 µM,1 of 3,3 of 9
W53E+G103W+D107G,no signal,0 of 3,0 of 9
D62C+G103F+Y105K,no signal,0 of 3,4 of 9
D31P+W53L+G103H,no signal,0 of 3,0 of 9
G50Q+A61Q+G103N,15 µM,1 of 3,1 of 9
S63W+G103R+D107C,no signal,0 of 3,0 of 9
Y32V+G56R+G103Q,21 µM,1 of 3,1 of 9
F29P+W53D+G103F,no signal,0 of 3,1 of 9
G26A+R101F+G103W,no signal,0 of 3,2 of 9
S63H+G103M,1.7 µM,1 of 3,0 of 9
V99H+G103W+Y108C,330 µM,3 of 3,8 of 9
F27Q+G50W+G103L,13 µM,1 of 3,2 of 9
D62Y+G103I+G104H,no signal,0 of 3,0 of 9
T28D+Y32D+G103W,4.7 µM,1 of 3,2 of 9
A61N+V99S+G103T,260 µM,1 of 3,4 of 9
I58L+A61T+G103H,570 µM,1 of 3,1 of 9

The 4 strongest on average among those seen in every replicate, once more:

changes,Kd,detected,control signals
A61M+V99I+G103V,29 nM,3 of 3,1 of 9
G103C+Y108I,56 nM,3 of 3,4 of 9
F29M+G100E+G103D,160 nM,3 of 3,5 of 9
D30F+V99I+G103E,720 nM,3 of 3,2 of 9